Source: US6890919B2, “Atypical antipsychotic agents having low affinity for the D2 receptor” (priority 2001, dated 2005)

Protein sequences, listed by entry. Tags and fused reporters are not part of them.
UniProt P14416, whole entry, species assumed: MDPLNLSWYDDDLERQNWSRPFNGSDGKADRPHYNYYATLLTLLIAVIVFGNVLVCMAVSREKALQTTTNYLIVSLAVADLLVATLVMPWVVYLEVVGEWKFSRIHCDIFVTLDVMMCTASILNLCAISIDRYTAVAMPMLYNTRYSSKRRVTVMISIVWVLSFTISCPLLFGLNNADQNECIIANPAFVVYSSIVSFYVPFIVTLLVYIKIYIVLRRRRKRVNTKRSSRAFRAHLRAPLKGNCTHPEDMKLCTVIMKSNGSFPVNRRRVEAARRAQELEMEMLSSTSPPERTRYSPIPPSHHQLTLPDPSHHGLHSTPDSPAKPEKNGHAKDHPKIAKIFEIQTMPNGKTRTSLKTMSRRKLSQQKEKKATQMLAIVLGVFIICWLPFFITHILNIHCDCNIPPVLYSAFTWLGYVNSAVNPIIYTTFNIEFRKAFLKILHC

Molecular target: dopamine D2 receptor (Homo sapiens, UniProt P14416)
Assay: Binding affinity for dopamine D2 receptor, 3H-raclopride as ligand (Seeman 1993)

Ki: 0.02 µM
SMILES: CN1CCN(C2=Nc3cc(Cl)ccc3Oc3ccccc32)CC1 [Isoloxapine, reference compound]
